This is a sample that favours compounds with a hit; in the whole collection about 3.7% have one here.
TCR act: activators of T cell receptors; primary human leukocytes, anti-CD3, IL-2 HTRF, 48 h; Potency, µM (series often up to 9.22 µM), hits mostly activators; 330,000 tested, under 10 active
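IL-2 produced over 48 hr by a-CD3 bead-stimulated primary human leukocytes exposed to compounds was detected with a homogeneous time-resolved FRET immunoassay, 665nm acceptor signal after 320nm excitation.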
miR-21 reporter: raises the signal of a miR-21 reporter | Potency, µM (highest dose often 38.3 µM) | HeLa miR-21 FLuc reporter, luciferase, 48 h | 340,000 tested, under 10 active; active = well fitted rising curve with a large enough effect; inconclusive = small, poorly fitted or top-dose-only effect; inactive = no such curve, though single readings can be large or run the other way;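 further: miR-21 action dims this reporter so a rising signal means less miR-21 action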
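HeLa cells stably expressing CMV-driven firefly luciferase with a downstream miR-21 binding sequence, endogenously expressing miR-21, were treated with titrations (up to about 40uM final) for 48 hours at 37 degree Celsius. Luciferase luminescence was read after lysis.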
A549 viability: A549 cytotoxicity, counter-screen for Nrf2 inhibitors | Potency, µM (titrated, usually from 46 µM), most hits filed as inhibitors | 0.16% of 390,000 active | A549 ARE-Fluc cells, CellTiter-Fluor viability, 18-24 h | AID 504648
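A549 ARE_Fluc cells in 5% FBS OPTI-MEM were exposed to compounds in concentration-response for 18-24 h at 37 deg C. Viability was read by CellTiter-Fluor fluorescence (Ex 405/Em 525) after 30 min, before the luciferase read.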
ClpP mod: qHTS Assay for Activators of ClpP. Potency, µM (doses to about 57.5 µM). purified B. subtilis ClpP, FRET peptide cleavage, 20 min. 1.9% of 340,000 active; active means well fitted falling curve with a large enough effect; inconclusive means small, poorly fitted or top-dose-only effect; inactive means no such curve, though single readings can be large or run the other way; further: the source files actives as falling curves though it sought activators and does not explain the sign; nearly all actives have a fitted effect of over 65% in size
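ClpP 10 microg/mL final, pH 8 Tris/KCl buffer with BSA, glycerol, Tween-20; compound pinned in; FRET-FV substrate; RT 20 min; Ex320/Em430; ΔFRET vs ADEP 5.8 microM, DMSO, no enzyme.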
Nrf2 activator: activators of Nrf2 (ARE) signaling. 0.31% of 410,000 active. AID 624171. Potency, µM (doses to about 46.1 µM), hits mostly activators. AREc32 ARE-luciferase reporter (MCF7-derived line), luminescence, 24 h; further: nearly all actives have a fitted effect of over 65% in size
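For detection, Steady-Glo was added and plates sat 30 min at RT; before that, AREc32_Fluc cells grown overnight in OPTI-MEM/5% FBS had been treated with 23 nL compound for 24 hr at 37 deg C.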
Nrf2 inh: blocks Nrf2 signaling; Potency, µM (highest dose often 46 µM), most hits filed as inhibitors; 2.1% of 360,000 active; AID 504444; A549 ARE-Fluc reporter, luciferase luminescence, 18-24 h; further: nearly all actives have a fitted effect of over 60% in size
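In this cell-based qHTS, ARE-driven firefly luciferase in A549 cells reports Nrf2 activity; the luminescent signal after BugLite lysis is the measured value, with a prior CellTiter-Fluor read for cell health.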
A number is an active result; – = inactive; ? = inconclusive; · = no result given. Unless noted, the call rests on the fitted dose curve; in most records, active means well fitted curve in the direction sought with a large enough effect; inconclusive means small, poorly fitted or top-dose-only effect, or another doubt; inactive means no such curve, though single readings can be large; an effect the other way counts as inactive or inconclusive.

SMILES | TCR act | miR-21 reporter | A549 viability | ClpP mod | Nrf2 activator | Nrf2 inh
CCOc1cc(CC(=O)N[C@@H](CC(C)C)c2ccccc2N2CCCCC2)ccc1C(=O)O | – | – | – | – | – | ?
COC(=O)c1c(NC(=O)c2c(OC)cccc2OC)sc2c1C(C(=O)OC)CC2 (configuration not stated) | – | – | ? | – | – | 13µM
COC(=O)c1c(NC(=O)c2c(OC)cccc2OC)sc2c1CCCC2 | · | – | – | ? | – | –
Cc1cc(C(C)(C)C)oc1C(=O)N(CC(=O)NC1CCCC1)c1cccc(C(F)(F)F)c1 | – | – | ? | – | – | 21µM
COc1cccc(-n2c(SCc3ccccn3)nc3c(c2=O)SCC3)c1 | – | – | – | · | – | 1.8µM
CC1CCC2(CC1)NC(=O)N(CC(=O)c1ccc[nH]1)C2=O (configuration not stated) | – | – | – | 28µM | – | ·
CC(C)CCNC(=O)c1ccc2c(c1)NC(=O)C(CS(=O)(=O)Cc1ccc(F)cc1)N2 (configuration not stated) | · | – | – | – | – | –
CN(C)CCNC(=O)c1ccc2c(c1)NC(=O)C(CS(=O)(=O)Cc1cccc(Br)c1)N2 (configuration not stated) | · | – | – | 32µM | – | ·
CCN(CC)CCCNC(=O)c1ccc2c(c1)NC(=O)C(CS(=O)(=O)Cc1ccc(F)cc1Cl)N2 (configuration not stated) | · | – | – | 3.2µM | – | ·
CCOCCCNC(=O)c1ccc2c(c1)NC(=O)C(CS(=O)(=O)Cc1ccc(F)cc1Cl)N2 (configuration not stated) | · | – | – | 7.1µM | – | ·
O=C(NCc1ccccc1Cl)c1ccc2c(c1)NC(=O)C(CS(=O)(=O)Cc1ccc(F)cc1Cl)N2 (configuration not stated) | · | – | – | – | – | ·
CCN(CC)CCNC(=O)c1ccc2c(c1)NC(=O)C(CS(=O)(=O)Cc1ccc(F)cc1Cl)N2 (configuration not stated) | · | – | – | 28µM | – | ·
O=C(NCc1ccc(Cl)cc1)c1ccc2c(c1)NC(=O)C(CS(=O)(=O)Cc1ccc(F)cc1Cl)N2 (configuration not stated) | · | – | – | – | – | –
COc1ccc(CNC(=O)COC(=O)Cc2ccc(Br)cc2)cc1 | – | · | – | · | – | –
CC(C)CN(CC(C)C)c1ccc(/C=C/c2ccnc3ccccc23)cc1 | · | · | · | – | · | ·
O=C(O)c1ccc(NC(=O)c2cccc(N3C(=O)C4C5CCC(C5)C4C3=O)c2)cc1 (configuration not stated) | – | – | – | 25µM | – | –
O=C(O)c1cc(NC(=O)c2cccc(N3C(=O)c4ccccc4C3=O)c2)cc(C(=O)O)c1 | – | – | – | – | – | –
COc1ccc(NC(=O)c2cccc(N3C(=O)C4C5C=CC(C6CC56)C4C3=O)c2)c(OC)c1 (configuration not stated) | – | – | – | – | – | ?
O=C(O)c1cccc(NC(=O)c2ccc3c(c2)C(=O)N(c2ccccc2)C3=O)c1 | – | – | – | 8.9µM | – | –
COc1ccc(NC(=O)c2cccc(N3C(=O)C4C5C=CC(C6CC56)C4C3=O)c2)cc1 (configuration not stated) | – | – | – | – | – | 21µM
O=C(Nc1ccc(Cl)cc1)c1cccc(N2C(=O)C3C4CCC(C4)C3C2=O)c1 (configuration not stated) | – | – | – | – | – | –
Cn1c(SCC(=O)NC2CCS(=O)(=O)C2)nc2ccccc21 (configuration not stated) | – | · | – | – | – | –
COc1ccc(C2=C(N3CCN(c4cccc(C)c4)C(C)C3)c3ccccc3C2=O)cc1 (configuration not stated) | · | – | ? | – | – | ?
CCN(C(=O)COC(=O)C1=COCCO1)c1c(N)n(Cc2ccccc2)c(=O)[nH]c1=O | – | · | – | 14µM | – | –
CCN(C(=O)COC(=O)/C=C/c1cccc(Cl)c1)c1c(N)n(Cc2ccccc2)c(=O)[nH]c1=O | – | · | – | – | – | –
SMILES | TCR act | miR-21 reporter | A549 viability | ClpP mod | Nrf2 activator | Nrf2 inh
CCN(C(=O)COC(=O)/C=C/c1ccc(Cl)c(Cl)c1)c1c(N)n(Cc2ccccc2)c(=O)[nH]c1=O | – | · | – | – | – | 15µM
O=C(CCCn1c(=O)oc2ccccc21)NNC(=O)COc1ccc(F)cc1 | – | · | – | – | – | –
O=C1NC(Cc2ccc(O)cc2)c2nc3ccc(F)cc3c(=O)n2-c2cc3ccccc3cc21 (configuration not stated) | · | · | · | – | – | ·
CSc1nc(-c2ccco2)cc(C(F)(F)F)c1C#N | – | – | – | – | – | –
N#Cc1c(C(F)(F)F)cc(-c2ccco2)nc1SCc1ccccn1 | – | – | – | 32µM | ? | –
N#Cc1c(C(F)(F)F)cc(-c2ccco2)nc1SCc1ccncc1 | – | – | – | 25µM | ? | –
CCN(CC)C(=O)CSc1nc(-c2ccco2)cc(C(F)(F)F)c1C#N | – | – | – | 32µM | – | ?
CSc1nc(-c2ccco2)cc(-c2ccccc2)c1C#N | – | – | – | ? | – | –
NS(=O)(=O)c1ccc(CCNS(=O)(=O)c2ccc3c(c2)NC(=O)CO3)cc1 | – | – | – | – | – | –
COc1ccc(Cn2c(=O)c3oc4ccccc4c3n(Cc3cccc(C(F)(F)F)c3)c2=O)cc1 | · | – | ? | ? | – | –
COCCCNC(=O)COc1cc2c(c3oc(=O)c(C)c(C)c13)CCC(C)(C)O2 | – | – | – | · | – | –
O=C(CCl)NCCCN(C(=O)C(Cl)Cl)c1ccc([N+](=O)[O-])cc1 | – | – | ? | – | 11µM | ?
CCCCS(=O)(=O)Nc1ccc2ncn(C)c(=O)c2c1 | – | – | – | 32µM | – | –
CC(=O)N1CC2(CC(c3ccc(Cl)cc3Cl)=NO2)CN1c1cccc(Cl)c1 (configuration not stated) | · | · | · | – | – | ·
CCc1nnc(SCc2cn3c(C)cc(C)nc3n2)n1N | – | – | – | 11µM | – | –
Cc1cc(C)n2cc(CSc3nnnn3C)nc2n1 | – | – | – | 25µM | – | –
Cc1cc(C)n2cc(CSc3nncn3C)nc2n1 | – | – | – | · | – | –
CCOC(=O)N1CCN(C(=O)C2CCN(C(=O)c3ccccc3C)CC2)CC1 | – | · | – | · | – | ?
O=C(CCNc1ccc(Cl)c(C(F)(F)F)c1)c1ccco1 | – | – | – | – | ? | –
O=C(CCNc1cccc(C(F)(F)F)c1)c1ccco1 | – | – | – | – | 16µM | –

Bioassay records from PubChem BioAssay.
